The text below walks through data of paper PMC4281354, “The opioid receptor pharmacology of GSK1521498 compared to other ligands with differential effects on compulsive reward-related behaviours” (Psychopharmacology, 2014).

Sequences of proteins named here, by UniProt entry; tags and fusion partners are left off. A change or cut given only in a name is not applied to a line headed by its entry.
UniProt P41143, whole entry: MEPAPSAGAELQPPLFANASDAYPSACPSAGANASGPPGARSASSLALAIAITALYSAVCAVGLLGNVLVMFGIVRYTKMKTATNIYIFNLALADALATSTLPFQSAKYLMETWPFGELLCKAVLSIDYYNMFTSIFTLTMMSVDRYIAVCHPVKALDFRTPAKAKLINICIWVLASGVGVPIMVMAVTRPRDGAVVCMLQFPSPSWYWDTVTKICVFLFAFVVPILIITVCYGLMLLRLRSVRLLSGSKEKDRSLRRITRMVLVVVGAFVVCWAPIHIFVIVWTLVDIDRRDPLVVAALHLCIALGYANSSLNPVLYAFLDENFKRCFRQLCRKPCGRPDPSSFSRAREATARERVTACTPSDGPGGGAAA
UniProt P41145: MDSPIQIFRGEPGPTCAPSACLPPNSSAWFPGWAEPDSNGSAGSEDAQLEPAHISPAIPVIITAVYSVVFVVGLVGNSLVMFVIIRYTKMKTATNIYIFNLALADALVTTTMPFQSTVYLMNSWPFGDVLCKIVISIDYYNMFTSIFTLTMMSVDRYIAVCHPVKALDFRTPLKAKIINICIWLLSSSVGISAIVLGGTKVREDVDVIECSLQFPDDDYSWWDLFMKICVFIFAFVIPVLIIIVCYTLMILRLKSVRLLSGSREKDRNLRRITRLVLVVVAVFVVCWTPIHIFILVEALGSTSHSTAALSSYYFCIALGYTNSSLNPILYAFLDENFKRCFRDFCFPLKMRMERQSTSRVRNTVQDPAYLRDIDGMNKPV
UniProt P35372, whole entry: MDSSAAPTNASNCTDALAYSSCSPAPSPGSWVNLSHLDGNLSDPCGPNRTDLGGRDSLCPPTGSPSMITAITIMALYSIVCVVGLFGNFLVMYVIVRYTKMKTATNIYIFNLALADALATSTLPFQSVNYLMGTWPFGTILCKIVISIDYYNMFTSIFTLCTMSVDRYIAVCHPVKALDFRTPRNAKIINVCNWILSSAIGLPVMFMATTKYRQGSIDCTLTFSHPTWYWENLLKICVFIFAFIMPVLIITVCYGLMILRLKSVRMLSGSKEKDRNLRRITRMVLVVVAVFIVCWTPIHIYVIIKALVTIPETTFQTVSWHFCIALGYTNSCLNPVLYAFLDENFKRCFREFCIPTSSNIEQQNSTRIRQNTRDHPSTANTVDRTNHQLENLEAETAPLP

Experiment [1] concerns the target human DOPr (Homo sapiens, UniProt P41143). The experiment is described as follows: Antagonism of Met-Enk-stimulated [35S]GTPγS binding, CHO membranes overexpressing DOPr (SPA, antagonist mode). Particulars: vs Met-Enk, CHO cells overexpressing DOPr; mean ± SEM of three experiments. The format is biochemical. A general note: GTPγS is a poorly hydrolysed GTP analogue; its binding reports G protein activation.

Experiment [2] concerns the target human KOPr (Homo sapiens, UniProt P41145). The experiment is described as follows: Antagonism of dynorphin-stimulated [35S]GTPγS binding, CHO membranes overexpressing KOPr (SPA, antagonist mode). It is filed as biochemical.
The target of experiment [3] is T1, MOPr (Homo sapiens, UniProt P35372). Put plainly: Antagonism of Met-Enk-stimulated [35S]GTPγS binding, CHO membranes overexpressing MOPr (SPA, antagonist mode). The format is biochemical.
In experiment [4] the target is T1, MOPr. The experiment is described as follows: [3H]naloxone dissociation kinetics from MOPr, MOPr-HEK293 membranes. The format is binding.
Experiment [5] addresses T1, MOPr. Put plainly: [3H]naloxone competition displacement binding, MOPr-HEK293 membranes.
The target of experiment [6] is T1, MOPr. The experiment is described as follows: Basal [35S]GTPγS binding, membranes from CHO cells expressing a low level of MOPr. It is filed as biochemical.
Experiment [7] deals with T1, MOPr. The experiment is described as follows: Basal [35S]GTPγS binding, CHO membranes overexpressing MOPr (agonist mode). The format is biochemical.

Regarding `Oc1ccc2c3c1O[C@H]1[C@H](O)CC[C@@]4(O)[C@@H](C2)N(CC2CC2)CC[C@]314` [6β-Naltrexol, 6-β-naltrexol, reference compound], in experiment [1], the “Antagonist potency (fpKi) DOPr” value was 7.71 ± 0.10. Besides, the “Antagonist potency (fpKi) KOPr” value in experiment [2] was determined as 8.52 ± 0.05. For the same compound, in experiment [3], the “Antagonist potency (fpKi) MOPr” value is given as 8.72 ± 0.11, the “blockade of MOPr activation by exogenous agonist” value is recorded as “about 70%” and the “completeness of inhibition of the agonist response at MOPr” value is listed as “did not produce complete inhibition”. For the same compound, in experiment [4], the “rate of 3H-naloxone dissociation in the presence of drug” value is “unchanged”. In addition, in experiment [5], the “Affinity of binding (pKi) to MOPr” value is on record as 9.12 ± 0.09 (n = 6) and the “maximum displacement of specific 3H-naloxone binding” value stood at 100%. Further, the “effect on basal level of GTPγS binding” value in experiment [6] was “did not modify”. Moreover, the “enhancement of basal [35S]GTPγS binding” value in experiment [7] was determined as 30%.
